# Membrane permeability of cyclic peptides

Source: CycPeptMPDB (Li et al. 2023), which took these values from Kelly et al. 2021, doi:10.1021/jacs.0c06115.

PAMPA is the parallel artificial membrane permeability assay, which has no cells and reads passive diffusion. P is given in units of 10^-6 cm/s (from log10 values with two decimals); larger means faster passage.

PAMPA (10^-6 cm/s),structure (SMILES)
1.8,CC[C@H]1NC(=O)[C@@H](NC(=O)[C@@H](CC(C)C)N(C)C(=O)[C@@H]2CCCN2C(C)=O)[C@@H](C)OC(=O)[C@@H]2CCCN2C(=O)[C@H](CC(C)C)NC(=O)[C@@H](C)N(C)C(=O)[C@@H](Cc2ccc(F)c(F)c2)NC(=O)[C@H](Cc2ccc(OC)cc2)NC1=O
2.1,COc1ccc(C[C@@H]2NC(=O)[C@@H](Cc3ccc(F)cc3)NC(=O)[C@@H](NC(=O)[C@@H](CC(C)C)N(C)C(=O)[C@@H]3CCCN3C(C)=O)[C@@H](C)OC(=O)[C@@H]3CCCN3C(=O)[C@H](CC(C)C)NC(=O)[C@@H](C)N(C)C(=O)[C@@H](CC(C)C)NC2=O)cc1
1.2,CCC[C@H]1NC(=O)[C@@H](NC(=O)[C@@H](CC(C)C)N(C)C(=O)[C@@H]2CCCN2C(C)=O)[C@@H](C)OC(=O)[C@@H]2CCCN2C(=O)[C@H](CC(C)C)NC(=O)[C@@H](C)N(C)C(=O)[C@@H](CCC)NC(=O)[C@H](CC(C)C)NC1=O
2.5,CC[C@@H]1NC(=O)[C@@H](Cc2ccc(F)c(F)c2)NC(=O)[C@@H](NC(=O)[C@@H](CC(C)C)N(C)C(=O)[C@@H]2CCCN2C(C)=O)[C@@H](C)OC(=O)[C@@H]2CCCN2C(=O)[C@H](CC(C)C)NC(=O)[C@@H](C)N(C)C(=O)[C@@H](Cc2ccc(F)c(F)c2)NC1=O
3.5,CC(=O)N[C@@H]1C(=O)N2CCC[C@H]2C(=O)N(C)[C@H](CC(C)C)C(=O)N[C@H](CC(C)C)C(=O)N(C)[C@H](CC(C)C)C(=O)N(C)[C@@H](CC(C)C)C(=O)N[C@H](C)C(=O)N[C@@H](CC(C)C)C(=O)N2CCC[C@@H]2C(=O)O[C@@H]1C
5.4,CC(=O)N1CCC[C@H]1C(=O)N[C@@H]1C(=O)N(C)[C@H](CC(C)C)C(=O)N(C)[C@H](CC(C)C)C(=O)N[C@H](CC(C)C)C(=O)N[C@H](CC(C)C)C(=O)N(C)[C@H](C)C(=O)N[C@@H](CC(C)C)C(=O)N2CCC[C@@H]2C(=O)O[C@@H]1C
1.7,CC(=O)N1CCC[C@H]1C(=O)N(C)[C@H](CC(C)C)C(=O)N[C@@H]1C(=O)N[C@H](Cc2ccccc2)C(=O)N[C@@H](CCc2ccccc2)C(=O)N[C@H](Cc2ccc(F)cc2)C(=O)N(C)[C@H](C)C(=O)N[C@@H](CC(C)C)C(=O)N2CCC[C@H]2C(=O)O[C@@H]1C
2.5,CC(=O)N[C@@H]1C(=O)N2CCC[C@H]2C(=O)N(C)[C@H](CC(C)C)C(=O)N[C@H](CC(C)C)C(=O)N(C)[C@H](CC(C)C)C(=O)N[C@H](CC(C)C)C(=O)N(C)[C@H](C)C(=O)N[C@@H](CC(C)C)C(=O)N2CCC[C@@H]2C(=O)O[C@@H]1C
0.74,CCC[C@@H]1NC(=O)[C@@H](Cc2ccc(F)cc2)NC(=O)[C@@H](NC(=O)[C@@H](CC(C)C)N(C)C(=O)[C@@H]2CCCN2C(C)=O)[C@@H](C)OC(=O)[C@@H]2CCCN2C(=O)[C@H](CC(C)C)NC(=O)[C@@H](C)N(C)C(=O)[C@@H](CC)NC1=O
5.6,CC(=O)N1CCC[C@H]1C(=O)N[C@@H]1C(=O)N[C@H](CC(C)C)C(=O)N(C)[C@@H](CC(C)C)C(=O)N(C)[C@H](CC(C)C)C(=O)N[C@H](CC(C)C)C(=O)N[C@H](C)C(=O)N[C@@H](CC(C)C)C(=O)N2CCC[C@@H]2C(=O)O[C@@H]1C
0.74,CC(=O)N1CCC[C@H]1C(=O)N(C)[C@H](CC(C)C)C(=O)N[C@@H]1C(=O)N[C@H](Cc2ccc(F)c(F)c2)C(=O)N[C@@H](Cc2ccccc2)C(=O)N[C@H](Cc2ccc(F)c(F)c2)C(=O)N(C)[C@H](C)C(=O)N[C@@H](CC(C)C)C(=O)N2CCC[C@H]2C(=O)O[C@@H]1C
3,CC(=O)N1CCC[C@H]1C(=O)N(C)[C@H](CC(C)C)C(=O)N[C@@H]1C(=O)N[C@H](Cc2ccc(F)c(F)c2)C(=O)N[C@@H](CC(C)C)C(=O)N[C@H](Cc2ccccc2)C(=O)N(C)[C@H](C)C(=O)N[C@@H](CC(C)C)C(=O)N2CCC[C@H]2C(=O)O[C@@H]1C
2.6,CC(=O)N1CCC[C@H]1C(=O)N(C)[C@H](CC(C)C)C(=O)N[C@@H]1C(=O)N[C@H](Cc2ccccc2)C(=O)N[C@@H](CCc2ccccc2)C(=O)N[C@H](Cc2ccccc2)C(=O)N(C)[C@H](C)C(=O)N[C@@H](CC(C)C)C(=O)N2CCC[C@H]2C(=O)O[C@@H]1C
2.2,CC[C@@H]1NC(=O)[C@@H](CC)NC(=O)[C@@H](NC(=O)[C@@H](CC(C)C)N(C)C(=O)[C@@H]2CCCN2C(C)=O)[C@@H](C)OC(=O)[C@@H]2CCCN2C(=O)[C@H](CC(C)C)NC(=O)[C@@H](C)N(C)C(=O)[C@@H](CC2CCCCC2)NC1=O
0.14,COc1ccc(C[C@@H]2NC(=O)[C@@H](Cc3cccc4ccccc34)NC(=O)[C@@H](NC(=O)[C@@H](CC(C)C)N(C)C(=O)[C@@H]3CCCN3C(C)=O)[C@@H](C)OC(=O)[C@@H]3CCCN3C(=O)[C@H](CC(C)C)NC(=O)[C@@H](C)N(C)C(=O)[C@@H](Cc3ccc(F)c(F)c3)NC2=O)cc1
12,CC(=O)N1CCC[C@H]1C(=O)N[C@@H]1C(=O)N(C)[C@H](CC(C)C)C(=O)N(C)[C@H](CC(C)C)C(=O)N[C@@H](CC(C)C)C(=O)N(C)[C@@H](CC(C)C)C(=O)N(C)[C@H](C)C(=O)N[C@@H](CC(C)C)C(=O)N2CCC[C@@H]2C(=O)O[C@@H]1C
1.4,CCC[C@H]1NC(=O)[C@@H](NC(=O)[C@@H](CC(C)C)N(C)C(=O)[C@@H]2CCCN2C(C)=O)[C@@H](C)OC(=O)[C@@H]2CCCN2C(=O)[C@H](CC(C)C)NC(=O)[C@@H](C)N(C)C(=O)[C@@H](Cc2cccc3ccccc23)NC(=O)[C@H](Cc2ccc(OC)cc2)NC1=O

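Lipid, pH, incubation time, direction and concentration are not recorded in the data file. Other peptides of the study may be missing here. Entries at the database's floor value (log10 P of -10) are not listed.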